Biological target: T1, Cbl-B (Homo sapiens, UniProt Q13191)
T1 construct: MSD-Based Assay for Degradation of Cbl-B in THP-1 Cells; endogenous in cells; host or cells: THP-1 (title) / Jurkat (protocol text)
Test: MSD-based assay for degradation of Cbl-B in THP-1 cells
Type: cell-based
Details: Jurkat cells seeded (heading: THP-1 cells), 24 hours incubation, MSD readout
Protocol: MSD-Based Assay for Degradation of Cbl-B in THP-1 Cells
Assay plates were then shaken at 600 rpm for 5 minutes, followed by incubation for 24 hours in the 37° C. TC incubator. […] Cell debris was then spun down at maximum speed (about 3200 g) for 30 min and lysates frozen in the −80° C. fridge. Meanwhile, MSD plates (L15XA-3) were coated overnight at 4° C. with 1 ug/mL capture antibody (Anti-Cbl-B antibody, 246C5a and Mouse mAB, ab54362). […] Blocking buffer was 3% Blocker A (MSD, R93BA-4) in TBST. Plates were washed 3× with 150 ul/well of 1×TBST and sample lysates (70 ul/well) then added, followed by shaking for 1 hr at RT, 600 rpm. […] Plates were again washed 3× with 150 ul/well of 1×TBST, followed by addition of Secondary Detection antibody, SULFO-TAG anti-species antibody (Anti Rabbit Antibody (R32AB-5) MSD, R32AB-1) at a final concentration of 1 ug/ml and 25 uL/well, followed by shaking for 1 hr at RT, 600 rpm. Plates were again washed 3× with 150 ul/well of 1×TBST, followed by addition of 1×MSD reading buffer (MSD, R92TC-2), 150 ul/well, diluted from 4× with water.
Compound Dmax were binned into A through D as follows: A indicates >70%, B indicates 50-70%, C indicates 30-50%, D indicates <30%.

Sequences of proteins named here, by UniProt entry; tags and fusion partners are left off.
UniProt Q13191, whole entry: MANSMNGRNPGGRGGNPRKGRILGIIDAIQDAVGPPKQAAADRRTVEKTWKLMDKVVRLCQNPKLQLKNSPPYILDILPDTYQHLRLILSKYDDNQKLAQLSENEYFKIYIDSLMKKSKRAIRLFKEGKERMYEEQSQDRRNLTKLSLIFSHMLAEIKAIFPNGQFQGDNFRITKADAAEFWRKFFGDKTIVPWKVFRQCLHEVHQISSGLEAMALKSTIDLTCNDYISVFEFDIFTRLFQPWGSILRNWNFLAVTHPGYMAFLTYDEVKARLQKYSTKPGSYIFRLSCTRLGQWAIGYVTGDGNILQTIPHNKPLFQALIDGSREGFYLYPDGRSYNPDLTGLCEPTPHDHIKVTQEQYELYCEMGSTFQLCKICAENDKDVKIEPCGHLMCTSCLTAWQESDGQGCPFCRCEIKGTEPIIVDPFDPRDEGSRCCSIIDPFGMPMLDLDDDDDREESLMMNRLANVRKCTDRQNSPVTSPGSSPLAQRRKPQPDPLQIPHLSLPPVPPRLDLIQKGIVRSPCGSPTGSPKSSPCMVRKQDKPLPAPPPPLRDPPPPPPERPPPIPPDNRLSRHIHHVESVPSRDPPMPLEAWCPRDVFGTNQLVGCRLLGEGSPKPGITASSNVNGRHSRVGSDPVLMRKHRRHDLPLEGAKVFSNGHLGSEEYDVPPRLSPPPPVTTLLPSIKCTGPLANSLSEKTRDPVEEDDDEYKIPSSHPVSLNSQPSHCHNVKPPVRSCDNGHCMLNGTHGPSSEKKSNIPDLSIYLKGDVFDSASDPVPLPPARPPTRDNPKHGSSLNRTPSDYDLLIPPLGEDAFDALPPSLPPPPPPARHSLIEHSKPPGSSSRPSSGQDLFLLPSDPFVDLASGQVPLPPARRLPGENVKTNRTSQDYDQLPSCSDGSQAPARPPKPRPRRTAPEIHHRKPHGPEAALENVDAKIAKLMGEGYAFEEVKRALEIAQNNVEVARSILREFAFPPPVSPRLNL

Row | Dmax | Compound
1 | 50 to 70% | CN(CCO[C@@H]1CCCN(Cc2cc(C(F)(F)F)c3cn(-c4cccc([C@H](c5nncn5C)C5CCC5)c4)c(=O)n3c2)C1)C(=O)c1ccc(N2CCN(c3ccc4c(c3)CN([C@H]3CCC(=O)NC3=O)C4=O)CC2)cc1 [Compound 104]
2 | 50 to 70% | CN(CCO[C@H]1CCCN(Cc2cc(C(F)(F)F)c3cn(-c4cccc([C@H](c5nncn5C)C5CCC5)c4)c(=O)n3c2)C1)C(=O)c1ccc(N2CCN(c3ccc4c(c3)CN([C@H]3CCC(=O)NC3=O)C4=O)CC2)cc1 [Compound 106]
